Values quoted from earlier work as cited in US9408887B2, “Intermittent dosing regimen for treating breast cancer” (New York University, priority 2011, dated 2016).
“Also recorded” adds a separate entry of the source.

Protein sequences, listed by entry. Tags and fused reporters are not part of them.
UniProt P35346, whole entry, species assumed: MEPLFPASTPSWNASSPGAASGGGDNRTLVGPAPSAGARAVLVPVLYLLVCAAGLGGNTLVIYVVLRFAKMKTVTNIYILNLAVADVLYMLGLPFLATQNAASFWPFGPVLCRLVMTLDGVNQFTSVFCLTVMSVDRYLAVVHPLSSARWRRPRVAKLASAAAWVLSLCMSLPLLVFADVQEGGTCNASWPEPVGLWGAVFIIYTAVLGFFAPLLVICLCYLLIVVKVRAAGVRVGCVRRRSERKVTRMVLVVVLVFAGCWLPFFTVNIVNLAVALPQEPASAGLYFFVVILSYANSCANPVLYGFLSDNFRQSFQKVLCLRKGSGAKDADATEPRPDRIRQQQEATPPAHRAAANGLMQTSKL
UniProt P32745, whole entry, species assumed: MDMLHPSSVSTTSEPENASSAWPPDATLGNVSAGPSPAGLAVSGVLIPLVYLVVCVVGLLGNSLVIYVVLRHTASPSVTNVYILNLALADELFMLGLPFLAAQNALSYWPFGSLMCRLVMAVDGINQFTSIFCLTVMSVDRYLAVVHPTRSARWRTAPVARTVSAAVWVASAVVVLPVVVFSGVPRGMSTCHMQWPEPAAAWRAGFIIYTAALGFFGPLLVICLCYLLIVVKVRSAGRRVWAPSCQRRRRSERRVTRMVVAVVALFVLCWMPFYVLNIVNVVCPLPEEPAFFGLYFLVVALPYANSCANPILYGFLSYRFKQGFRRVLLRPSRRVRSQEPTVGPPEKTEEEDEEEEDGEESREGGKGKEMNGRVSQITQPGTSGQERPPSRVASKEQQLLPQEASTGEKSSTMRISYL
UniProt P30872, whole entry, species assumed: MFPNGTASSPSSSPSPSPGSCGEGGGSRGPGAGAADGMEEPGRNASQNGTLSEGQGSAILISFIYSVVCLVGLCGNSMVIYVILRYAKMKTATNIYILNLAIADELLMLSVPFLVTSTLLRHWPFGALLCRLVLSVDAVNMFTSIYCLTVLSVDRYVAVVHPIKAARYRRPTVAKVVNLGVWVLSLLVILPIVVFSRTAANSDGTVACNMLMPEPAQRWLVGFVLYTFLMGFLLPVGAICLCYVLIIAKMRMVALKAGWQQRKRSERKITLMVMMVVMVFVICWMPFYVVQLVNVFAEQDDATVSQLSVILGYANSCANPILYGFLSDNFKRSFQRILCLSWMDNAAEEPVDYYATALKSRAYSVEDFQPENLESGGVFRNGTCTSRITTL
UniProt P31391, whole entry, species assumed: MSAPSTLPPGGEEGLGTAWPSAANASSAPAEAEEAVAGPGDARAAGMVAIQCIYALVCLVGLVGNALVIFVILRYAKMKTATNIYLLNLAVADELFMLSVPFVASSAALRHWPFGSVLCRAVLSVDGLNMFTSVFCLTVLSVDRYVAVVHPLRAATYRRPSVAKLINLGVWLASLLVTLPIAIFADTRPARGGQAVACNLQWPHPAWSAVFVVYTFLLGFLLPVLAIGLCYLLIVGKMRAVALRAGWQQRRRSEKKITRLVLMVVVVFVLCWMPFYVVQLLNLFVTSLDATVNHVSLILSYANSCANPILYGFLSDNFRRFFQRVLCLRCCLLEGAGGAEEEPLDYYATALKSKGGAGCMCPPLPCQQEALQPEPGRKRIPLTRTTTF
UniProt P30874, whole entry, species assumed: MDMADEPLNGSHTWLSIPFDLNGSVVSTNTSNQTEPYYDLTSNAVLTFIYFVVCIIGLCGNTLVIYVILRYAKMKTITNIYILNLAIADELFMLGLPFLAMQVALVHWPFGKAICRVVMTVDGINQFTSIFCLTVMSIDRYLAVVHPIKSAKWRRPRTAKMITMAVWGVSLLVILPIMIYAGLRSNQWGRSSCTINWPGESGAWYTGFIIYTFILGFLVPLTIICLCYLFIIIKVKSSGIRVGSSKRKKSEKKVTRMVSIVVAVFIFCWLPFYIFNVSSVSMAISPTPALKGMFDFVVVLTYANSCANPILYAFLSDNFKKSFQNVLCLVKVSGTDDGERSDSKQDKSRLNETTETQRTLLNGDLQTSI

Key:
Conditions in all cases: cited from earlier work
SSTR-5 = SSTR-5 (Homo sapiens, UniProt P35346)
SSTR-3 = SSTR-3 (Homo sapiens, UniProt P32745)
SSTR-1 = SSTR-1 (Homo sapiens, UniProt P30872)
SSTR-4 = SSTR-4 (Homo sapiens, UniProt P31391)
SSTR-2 = SSTR-2 (Homo sapiens, UniProt P30874)

| Substance | affinity for SSTR-5 (SSTR-5) | affinity for SSTR-3 (SSTR-3) | affinity for SSTR-1 (SSTR-1) | affinity for SSTR-4 (SSTR-4) | affinity for SSTR-2 (SSTR-2) |
| --- | --- | --- | --- | --- | --- |
| Octreotide | relatively low affinity; also recorded: moderate affinity | relatively low affinity; also recorded: moderate affinity | low affinity | moderate affinity | high affinity |
| vapreotide | relatively low affinity; also recorded: moderate affinity | relatively low affinity; also recorded: moderate affinity | low affinity | moderate affinity | high affinity |
